According to US20210284618A1, “FURANOCHALCONES AS INHIBITORS OF CYP1A1, CYP1A2 AND CYP1B1 FOR CANCER CHEMOPREVENTION” (Council of Scientific & Industrial Research, priority 2016, published 2021):

Target: T1, CYP1A1 (Homo sapiens, UniProt P04798)
T1 construct: host or cells: yeast microsomes (Saccharosomes)
T1 sequence (P04798 1-512): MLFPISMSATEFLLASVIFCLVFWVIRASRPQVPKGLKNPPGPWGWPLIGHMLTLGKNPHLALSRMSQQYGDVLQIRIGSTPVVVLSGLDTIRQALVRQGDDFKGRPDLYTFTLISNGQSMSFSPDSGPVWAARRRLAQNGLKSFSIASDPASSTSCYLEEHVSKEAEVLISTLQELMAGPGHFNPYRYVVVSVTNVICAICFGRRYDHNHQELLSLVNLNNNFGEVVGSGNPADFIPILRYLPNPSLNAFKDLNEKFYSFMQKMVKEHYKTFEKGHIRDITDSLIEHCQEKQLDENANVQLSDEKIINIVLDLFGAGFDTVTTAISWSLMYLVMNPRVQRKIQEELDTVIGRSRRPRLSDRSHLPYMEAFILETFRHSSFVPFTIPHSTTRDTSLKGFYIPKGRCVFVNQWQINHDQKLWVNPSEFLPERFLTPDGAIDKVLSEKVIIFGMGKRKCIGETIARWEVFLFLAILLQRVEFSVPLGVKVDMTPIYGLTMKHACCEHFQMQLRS
Assay: CYP1A1 inhibition in HEK293 cells transfected with pcDNA3.1/CYP1A1 (live cells)
Type: cell-based
Conditions: 5 μM EROD
Protocol: Example 26. In-vitro CYP450 inhibition in HEK293 cells transfected with pcDNA3.1/CYP1A1 against 5 μM EROD. This assay was performed in a similar way as described above in examples 24 and 25. The HEK293 cells used here was procured from ‘European Collection of Authenticated Cell Cultures’ (catalog number. ECACC 85120602).
Example 27. IC50 determination of selected compounds against CYP1A1 and other CYP P450s in HEK293 cells transfected with pcDNA3.1/CYP1A1: The IC50 values of selected compound 8 and 6 against CYP1A1 in Saccharosomes and in HEK293 cells transfected with pcDNA3.1/CYP1A1 was determined (Table 5).

COc1c2occc2c(OC)c2c(=O)cc(C)oc12 [Compound 1, Khellin, reference compound]
% inhibition of CYP1A1 in HEK293 cells at 10 μM: 81% and 81.3%

Values joined by “and” are separate entries in the source; they are usually repeats but may differ in a detail not shown here. Equal values may be shown once.
